The numbers were not newly measured in patent US7049092B1 (priority 1999, dated 2006), which cites them from elsewhere.

For this series, the target named is hormone-sensitive lipase. The conditions noted are these: read-out: IC50 (concentration producing 50% inhibition).

Consider `[F-].[Na+]` [NaF (sodium fluoride), sodium fluoride], for which the IC50 is 25 mM.
